{"source": "patent US20080241919A1", "about": "“Defined media for pluripotent stem cell culture” (The Burnham Institute of Medical Research, priority 2003, published 2008)", "molecules": {"B1": {"name": "BMP-2: bone morphogenic protein 2 (protein, UniProt P12643 283-396, looked up)", "Bone morphogenetic protein 2": "QAKHKQRKRLKSSCKRHPLYVDFSDVGWNDWIVAPPGYHAFYCHGECPFPLADHLNSTNHAIVQTLVNSVNSKIPKACCVPTELSAISMLYLDENEKVVLKNYQDMVVEGCGCR"}}, "test_system": "human embryonic stem cells (hESCs)", "assay": "Other growth factors in place of bFGF for undifferentiated growth of hESCs", "assay_type": "cell-based", "conditions": "feeder- and serum-free conditions", "experimental": "All the growth factors were dissolved in a PBS buffer that contained 0.5% BSA, 1 mM DTT (Dithiothreitol) and 10% glyceral as a 10 μg/ml (500×) stock solution and stored in aliquots at −80° C. These factors were added individually to the hESC cultures at a concentration of 20 ng/ml, in the absence of bFGF or in the presence of a low concentration of bFGF (4 ng/ml). Seven days after seeding undifferentiated hESCs on laminin/collagen-coated plates, the cultures were examined.", "data": [{"molecule": "B1", "values": [{"measurement": "ability to replace bFGF in supporting undifferentiated growth of hESCs", "value": "can not replace bFGF"}]}]}
